Assay results taken from US20240002326A1, “COMPOUNDS AND USE THEREOF IN METHODS OF TREATMENT” (The University of Queensland, priority 2016, published 2024).

The chains behind the UniProt entries cited, without tags or fusion partners. Residues count along the entry.
UniProt Q96DB2, whole entry: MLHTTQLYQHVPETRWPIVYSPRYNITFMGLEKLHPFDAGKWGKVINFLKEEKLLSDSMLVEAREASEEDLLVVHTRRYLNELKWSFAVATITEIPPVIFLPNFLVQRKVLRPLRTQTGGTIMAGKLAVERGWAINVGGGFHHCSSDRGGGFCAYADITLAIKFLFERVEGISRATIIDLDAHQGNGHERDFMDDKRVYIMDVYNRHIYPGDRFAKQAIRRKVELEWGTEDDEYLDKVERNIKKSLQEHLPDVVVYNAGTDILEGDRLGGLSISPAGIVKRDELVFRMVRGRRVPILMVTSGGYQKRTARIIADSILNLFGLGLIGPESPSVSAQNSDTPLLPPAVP
UniProt P40645, 620-688 limits assumed: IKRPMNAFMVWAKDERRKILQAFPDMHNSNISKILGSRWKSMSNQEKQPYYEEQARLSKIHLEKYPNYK
UniProt P43680, 69-177 limits assumed: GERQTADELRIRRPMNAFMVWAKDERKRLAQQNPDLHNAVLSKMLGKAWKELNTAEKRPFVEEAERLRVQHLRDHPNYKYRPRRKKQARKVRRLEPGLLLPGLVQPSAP
UniProt P48432, 43-111 limits assumed: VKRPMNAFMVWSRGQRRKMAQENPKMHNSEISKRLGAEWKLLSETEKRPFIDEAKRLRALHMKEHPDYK

How the values were obtained:
GABAA, Flunitrazepam = assay: Off-target radioligand binding, GABAA Flunitrazepam; conditions: Rat
Sox9 = assay: Zebrafish tg(col2a1:yfp) Sox9 reporter; conditions: continuous treatment between 2 and 6 days post fertilization
HDAC11 = HDAC11 (Homo sapiens (Human), UniProt Q96DB2); assay: Recombinant-enzyme fluorimetry assay, HDAC11
[1] = test system: SOX18 dominant negative mutant Ra^op; assay: Single molecule tracking of SOX18 dominant negative mutant Ra^op; type: cell-based; conditions: concentration-dependent
From the text: FIG. 24B depicts the experimental workflow, which involves bi-dimensional tracking of molecule trajectory and analysis using MATLAB, as outlined in Chen et al. (Cell 156, 1274-1285; 2014). We note that the immobile DNA bound fraction (%, shown in pie graphs) is of two types, specific and non-specific, depending on the dwelling time in one same DNA position; if of a short time (less than 1 second average) this is considered to be non-specific binding (i.e., transient binding to random DNA sites), and if of a long time (greater than 5-6 seconds average) this is considered to be specific binding (i.e., longer binding to target DNA sites with transcriptional effect). The dwell times of immobile DNA bound fractions (shown as bar graphs) is also of two types, specific and non-specific: The length of time in seconds that SOX18 molecules bind to DNA non-specifically (on average less than 1 second) or specifically (on average greater than 5-6 seconds). Single molecule tracking is performed after transfection of Hela cells with a SOX18-Halotag reporter construct. This expression vector enables us to detect single molecule of SOX18 protein upon addition of a ligand which becomes fluorescent after enzymatic processing by the Halotag system. Real time imaging is performed using a modified version of TIRF microscopy (HiLo) using a ZEISS ELYRA super-resolution microscope.

SOX6 HMG fragment = SOX6 HMG fragment (Mus musculus (Mouse), UniProt P40645); assay: FP DNA-binding competition assay, SOX6 HMG fragment; conditions: read-out: DNA-binding inhibition IC50, SOX6 HMG; HMG only fragment
Experimental: (§1) Mouse SOX HMG fragments. The HMG domains of mouse SOX2 (Group B), SOX11 (Group C), SOX6 (Group D), SOX9 (Group E), SOX18 (Group F) and SOX15 (Group G) were BP cloned from cDNA templates (IMAGE cDNA clone IDs: Sox18: 3967084; Sox9: 5354229; Sox4: 6822618) into a pDONRTM221 pENTRY vector, sequenced and recombined into a pETG20A or a pHisMBP expression plasmid using Gateway®LR Technology (Ng et al., 2012). Constructs were transformed into Escherichia coli BL21(DE3) cells (Luria-Bertani, 100 μg/ml Ampicillin).
(§2) The DNA-binding competition assay was performed in black 384-well plates, with mouse full length SOX18, or SOX-HMG fragments. All experiments were performed using a fluorescently-labelled Prox1-DNA element. […]
(§3) The DNA-binding competition assay was performed in 25 uL, in black 384-well plates, using either 30 mM HEPES (N-2-Hydroxyethylpiperazine-N′-2-Ethanesulfonic Acid) (pH 7.5, with 100 mM KCl, 40 mM NaCl, 10 mM NH4OAc, […], 2 mM MgCl2, 0.5 mM EDTA, 0.01% NP-40) for mouse full length SOX18, or Tris-NaCl (10 mM Tris pH 8.0 and 100 mM NaCl) for SOX-HMG fragments. […] After mixing protein, DNA probe and compound, plates were sealed and briskly agitated in the dark for 5 minutes at room temperature, 10 minutes at 37° C., and 30 minutes at room temperature, before reading fluorescence polarization on a Tecan M1000Pro (λexc=485 nm, λem=525 nm). […]

mouse SOX18-HMG (109aa) = mouse SOX18-HMG (109aa) (Mus musculus (Mouse), UniProt P43680); assay: Direct protein binding assay (thermal aggregation, static light scattering); conditions: 500 μM for Sm4 and Sm14, 1.5 mM for Sm5
GABAA, Muscimol = assay: Off-target radioligand binding, GABAA Muscimol; conditions: Rat
SOX18[109] HMG fragment = SOX18[109] HMG fragment (Mus musculus (Mouse), UniProt P43680); assay: FP DNA-binding competition assay, SOX18[109] HMG fragment
Sodium Channel, Site 2 = assay: Off-target radioligand binding, Sodium Channel Site 2; conditions: Site 2, Rat
[2] = test system: Sox7, Sox18 and Rbpj (Dll4 in3 enhancer); assay: Zebrafish tg(Dll4 in3:eGFP) SoxF/Notch reporter; conditions: 2 μM Sm4 from 13 hpf
SOX2 HMG fragment = SOX2 HMG fragment (Mus musculus (Mouse), UniProt P48432); assay: FP DNA-binding competition assay, SOX2 HMG fragment; conditions: read-out: DNA-binding inhibition IC50, SOX2 HMG; HMG only fragment
Experimental: as §1, §2, §3

O=C(O)c1c(O)cccc1CCc1ccc2ccccc2c1
Inhibition at 10 μM (%) (GABAA, Flunitrazepam): −6% | transcriptional activity of Sox9 / chondrogenesis in vivo (Sox9): did not perturb | Inhibition at 10 μM (%) (HDAC11): −29.1% | Ra^op chromatin bound fraction [1]: decreases Ra^op specific bound fraction | IC50 (SOX6 HMG fragment): 270 to 310 µM | increase in Tagg (mouse SOX18-HMG (109aa)): more than 3 °C | Inhibition at 10 μM (%) (GABAA, Muscimol): 6% | SOX18-DNA binding inhibition (FP, words) (SOX18[109] HMG fragment; SAR library, SOX18[109]): inhibit both DNA and PPI | IC50 (SOX18[109] HMG fragment; read-out: DNA-binding inhibition IC50, SOX18 HMG, HMG only fragment): 200 to 220 µM | Inhibition at 10 μM (%) (Sodium Channel, Site 2): −13% | Dll4 in3 enhancer activity, Sm4 alone [2]: mild repressive effect | increase of repressive effect, rbpj MO at suboptimal dose combined with Sm4 [2]: 11.5% | IC50 (SOX2 HMG fragment): 270 to 310 µM
